# scFv variants of Ab-95 (light chain) against a SARS-CoV-2 spike peptide

From the AlphaSeq antibody data of Engelhart et al. 2022 (doi:10.1038/s41597-022-01779-4), copy in the FLAb collection.

All variants were tested on one target, the spike HR2 peptide PDVDLGDISGINAS (SARS-CoV-2).

The variants keep the heavy chain, the linker and the frameworks of Ab-95 (scFv order VH, a (GGGGS)3 linker, VL).
VH: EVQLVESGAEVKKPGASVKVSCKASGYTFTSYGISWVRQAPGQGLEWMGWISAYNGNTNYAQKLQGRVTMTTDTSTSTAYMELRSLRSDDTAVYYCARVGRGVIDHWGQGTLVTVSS
VL: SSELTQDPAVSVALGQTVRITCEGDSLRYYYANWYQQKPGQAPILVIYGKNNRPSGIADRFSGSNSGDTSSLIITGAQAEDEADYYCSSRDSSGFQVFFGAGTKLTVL

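The starting antibody came from a phage panning campaign against this peptide. In library AAYL52, one, two or three CDR residues were substituted; doubles and triples were drawn at random. The assay is AlphaSeq: two haploid yeast populations carry antibody and antigen on their surface. Binding brings cells together so that they mate, and sequencing counts the barcode pairs among the diploids. Each replicate has its own calibration line, from reference interactions of the BCL2 family. Each pool was mated in three replicate cultures.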

Substitutions are numbered in sequence along the VL above, starting at 1 (not Kabat).
The read-out is the apparent dissociation constant on a log10 scale (nM): the lower, the stronger.
"ND" means that the variant was in the library but no mating with the target was seen in that replicate; the authors take this as a sign of poor binding, and no number exists.
Background: pairings of library AAYL52 with three empty control strains gave a value in 28% of cases (median 3.91, 5th percentile 2.90). Values in that range, when seen in few replicates, are hard to tell from nonspecific mating.
Parent in this assay: reference entry 2.31, copy in this library 2.25.

changes,"replicates, log10 nM"
N52T+R90G+D91I,2.08 1.76 1.63
A32Q+K50E,ND ND ND
L27F+S92P,3.13 3.00 2.93
G24R+Y29D,3.08 3.92 2.90
R28Q+N33K+P54D,4.28 ND ND
G24P+N33Y+Q96P,3.35 4.55 3.69
G24V+Y29M+F95S,3.09 5.05 3.91
Y30I+A32H+G49A,ND 5.17 ND
E23V+R28L+S92T,3.39 3.18 2.09
R28S+S88Y+F98L,ND ND ND
L27K+P54N+R90I,2.04 ND 3.48
N51L+S55A+R90I,4.69 2.94 2.47
R28I+G49N+R90L,2.90 2.79 2.74
R90W+G94D,ND ND ND
E23M+Y29L+Y30G,0.75 0.60 -0.09
D25K+S55G+S89V,2.59 2.42 2.32
N33C+K50E,ND ND ND
D25K+L27D+R90W,ND ND ND
Y31R+N33R+G94A,ND 2.96 ND
D25P+K50P+S93Y,2.84 ND ND

Further variants, results first:

"replicates, log10 nM",changes
2.06 2.03 2.21,D25I+R28K+Y29T
4.64 3.17 2.95,G24M+S89D+F98S
5.24 ND ND,Y29G+N33Y+G94M
3.28 4.93 ND,R28M+N33P+R90L
2.49 2.99 2.41,D25F+Y30D+S88K
3.41 ND ND,E23P+Y31P+R90D
ND ND ND,E23A+S93K+G94M
3.89 3.53 3.13,R53P+D91M+Q96Y
3.61 3.18 ND,S26V+S88D+G94N
ND ND 4.37,S26R+S88Y+F95A
3.45 2.77 ND,G24K+S93T+F95S
1.77 1.84 1.76,D25P+R28T
ND ND ND,S88K+S92I
ND 3.32 4.28,S89T+D91P+S92Q
2.68 2.63 2.95,E23W+S88Q+S89C
2.70 2.53 1.94,S55A+G94N+Q96N
2.67 2.33 0.89,N52A+S93L+G94P
3.42 2.33 2.62,N52K+S88L+Q96F
2.12 2.62 1.72,Y31S+S93E+F98L
ND ND ND,D25C+S88W+S92M
ND 2.86 ND,Y29M+A32R+S88T

For reference, 3 entries of the list once more:

{"changes": "E23P+Y31P+R90D", "replicates, log10 nM": "3.41 ND ND"}
{"changes": "L27F+S92P", "replicates, log10 nM": "3.13 3.00 2.93"}
{"changes": "R28I+G49N+R90L", "replicates, log10 nM": "2.90 2.79 2.74"}